The values below are quoted from earlier work in PMC8394219, “In Vitro Nephrotoxicity Studies of Established and Experimental Platinum-Based Compounds” (Biomedicines, 2021).

For data set [1], the system named is organic cation transporter 2 (OCT2). Set-up: method as in PMID 17582384, PMID 21144842. The following applies: cited from earlier work.
The next data set relates to MATE2-K. The conditions noted are these: cited from earlier work.

As for `O=C1[O][Pt]2([NH][C@@H]3CCCC[C@H]3[NH]2)[O]C1=O` [Oxaliplatin], the “uptake via / affinity to OCT2” value in data set [1] is “uptake via OCT2 has also been observed”. The “affinity for MATE2-K” value in the data set with MATE2-K was “substrate for both MATE1 and MATE2-K”.
